This passage reports EC50 results from article PMC5766324.

This test addresses tubulin (UniProt P02550). Description: ELISA. A general note: In an ELISA, binding on a coated surface is turned into a signal by an enzyme label.

pEC50: −log10 of the molar value.

As for “CRMP2-6XHis (from UniProt P47942 1-572) (natural protein)”, the pEC50 (commonly the negative decadic logarithm of the EC50, by convention in mol/L) was 6.22.
